The record followed here is patent publication US10730889B2, “Amido spirocyclic amide and sulfonamide derivatives” (Forma TM, LLC, priority 2012, dated 2020).

Protein sequences, listed by entry. Tags and fused reporters are not part of them. Lines headed by an entry give the natural chain unless they say otherwise; changes in a name come on top.
UniProt P43490: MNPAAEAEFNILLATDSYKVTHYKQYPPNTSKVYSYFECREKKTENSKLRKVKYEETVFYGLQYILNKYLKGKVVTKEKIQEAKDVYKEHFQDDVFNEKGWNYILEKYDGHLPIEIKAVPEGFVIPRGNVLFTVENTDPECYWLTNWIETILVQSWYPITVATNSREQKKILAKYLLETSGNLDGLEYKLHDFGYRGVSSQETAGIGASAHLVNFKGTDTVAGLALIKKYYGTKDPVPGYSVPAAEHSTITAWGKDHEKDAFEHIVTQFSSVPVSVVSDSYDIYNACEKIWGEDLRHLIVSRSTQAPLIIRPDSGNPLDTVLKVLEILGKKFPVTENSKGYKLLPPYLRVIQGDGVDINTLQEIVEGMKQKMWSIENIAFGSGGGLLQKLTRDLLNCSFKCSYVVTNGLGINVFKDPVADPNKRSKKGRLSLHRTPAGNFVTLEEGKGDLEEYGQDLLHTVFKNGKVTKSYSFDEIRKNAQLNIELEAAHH

The term IC50 denotes the concentration at which inhibition is half-maximal. Higher therefore signals lower potency.

The target in this experiment is NAMPT (Homo sapiens (Human), UniProt P43490). The experiment in a line: Biochemical inhibition assay (NAMPT enzymatic reaction, NMN quantified by mass spectrometry).
Consider `Cc1nn(C)c(C)c1C(=O)N1CCC2(CC1)CC2CNC(=O)c1cc2ccncc2o1` (stereo not shown) [Example 181, N-[[6-(1,3,5-trimethylpyrazole-4-carbonyl)-6-azaspiro[2.5]octan-2-yl]methyl]furo[2,3-c]pyridine-2-carboxamide], for which the IC50 was determined as 17.3 nM.
`CC(C)(C)NC(=O)N1CCC2(CC1)CC2CNC(=O)c1cc2ccncc2o1` (stereo not shown) [Example 182, N-[[6-(tert-butylcarbamoyl)-6-azaspiro[2.5]octan-2-yl]methyl]furo[2,3-c]pyndine-2-carboxamide] showed a half-inhibitory concentration (IC50) of 255 nM.
As to `CC(C)NC(=O)N1CCC2(CC1)CC2CNC(=O)c1cc2ccncc2o1` (stereo not shown) [Example 183, N-[[6-(isopropylcarbamoyl)-6-azaspiro[2.5]octan-2-yl]methyl]furo[2,3-c]pyridine-2-carboxamide], the midpoint of inhibition, the IC50, lay at 314 nM.
`O=C(NCC1CC12CCN(C(=O)NCC1CCCCC1)CC2)c1cc2ccncc2o1` (stereo not shown) [Example 184, N-[[6-(cyclohexylmethylcarbamoyl)-6-azaspiro[2.5]octan-2-yl]methyl]furo[2,3-c]pyridine-2-carboxamide] gave an IC50 of 422 nM.
With `CCCNC(=O)N1CCC2(CC1)CC2CNC(=O)c1cc2ccncc2o1` (stereo not shown) [Example 185, N-[[6-(propylcarbamoyl)-6-azaspiro[2.5]octan-2-yl]methyl]furo[2,3-c]pyridine-2-carboxamide] the figure was 502 nM; with `O=C(NCC1CC12CCN(C(=O)NC1CCCCC1)CC2)c1cc2ccncc2o1` (stereo not shown) [Example 186, N-[[6-(cyclohexylcarbamoyl)-6-azaspiro[2.5]octan-2-yl)methyl]furo[2,3-c]pyridine-2-carboxamide], 97.2 nM; with `O=C(NCC1CC12CCN(C(=O)Nc1ccccc1)CC2)c1cc2ccncc2o1` (stereo not shown) [Example 187, N-[[6-(phenylcarbamoyl)-6-azaspiro[2.5]octan-2-yl]methyl]furo[2,3-c]pyridine-2-carboxamide], 44.6 nM.
With `CC(C)N1CCC(CC(=O)N2CCC3(CC2)CC3CNC(=O)N2Cc3ccncc3C2)CC1` (stereo not shown) [Example 188, N-[[6-[2-(1-isopropyl-4-piperidyl)acetyl]-6-azaspiro[2.5]octan-2-yl]methyl]-1,3-dihydropyrrolo[3,4-c]pyridine-2-carboxamide] the figure was 30.1 nM; with `O=C(Cc1ccncc1)N1CCC2(CC1)CC2CNC(=O)N1Cc2ccncc2C1` (stereo not shown) [Example 190, N-[[6-[2-(4-pyridyl)acetyl]-6-azaspiro[2.5]octan-2-yl]methyl]-1,3-dihydropyrrolo[3,4-c]pyridine-2-carboxamide], 31.2 nM; with `N#CCC(=O)N1CCC2(CC1)CC2CNC(=O)N1Cc2ccncc2C1` (stereo not shown) [Example 191, N-[[6-(2-cyanoacetyl)-6-azaspiro[2.5]octan-2-yl]methyl]-1,3-dihydropyrrolo[3,4-c]pyridine-2-carboxamide], 156 nM.
In the case of `CC(C)(C)OC(=O)N1CCC2(CC1)CC(CNC(=O)c1cc3cnccc3[nH]1)C2` [Example 193, tert-butyl 2-[(1H-pyrrolo[3,2-c]pyridine-2-carbonylamino)methyl]-7-azaspiro[3.5]nonane-7-carboxylate], inhibition was half-maximal at 212 nM (IC50).
In the case of `CC(C)(C)OC(=O)N1CCC2(CC1)CC(CNC(=O)c1cc3ccncc3o1)C2` [Example 194, tert-butyl 2-[(furo[2,3-c]pyridine-2-carbonylamino)methyl]-7-azaspiro[3.5]nonane-7-carboxylate] it was 668 nM.
With `CC1(CC(=O)N2CCC3(CC2)CC3CNC(=O)c2cc3ccncc3o2)COC1` (stereo not shown) [Example 195, N-[[6-[2-(3-methyloxetan-3-yl)acetyl]-6-azaspiro[2.5]octan-2-yl]methyl]furo[2,3-c]pyridine-2-carboxamide] the figure was 78.5 nM; with `O=C(CC1CCCCC1)N1CCC2(CC1)CC2CNC(=O)N1Cc2ccncc2C1` (stereo not shown) [Example 196, N-[[6-(2-cyclohexylacetyl)-6-azaspiro[2.5]octan-2-yl]methyl]-1,3-dihydropyrrolo[3,4-c]pyridine-2-carboxamide], 14.4 nM.
In turn, `O=C(CN1CCOCC1)N1CCC2(CC1)CC2CNC(=O)N1Cc2ccncc2C1` (stereo not shown) [Example 198, N-[[6-(2-morpholinoacetyl)-6-azaspiro[2.5]octan-2-yl]methyl]-1,3-dihydropyrrolo[3,4-c]pyridine-2-carboxamide] returned an IC50 of 131 nM.
Take `CC(C)(C)OC(=O)N1CCC2(CC1)CC(CNC(=O)N1Cc3ccncc3C1)C2` [Example 200, tert-butyl 2-[(1,3-dihydropyrrolo[3,4-c]pyridine-2-carbonylamino)methyl]-7-azaspiro[3.5]nonane-7-carboxylate]: the IC50 is 4.56 nM.
In the case of `O=C(Cc1cc(F)cc(F)c1)N1CCC2(CC1)CC2CNC(=O)N1Cc2ccncc2C1` (stereo not shown) [Example 201, N-[[6-[2-(3,5-difluorophenyl)acetyl]-6-azaspiro[2.5]octan-2-yl]methyl]-1,3-dihydropyrrolo[3,4-c]pyridine-2-carboxamide] it was 17.3 nM.
Regarding `CC(C)(C)NC(=O)N1CCC2(CC1)CC2CNC(=O)c1cc2cnccc2[nH]1` (stereo not shown) [Example 203, N-[[6-(tert-butylcarbamoyl)-6-azaspiro[2.5]octan-2-yl]methyl]-1H-pyrrolo[3,2-c]pyridine-2-carboxamide], half-maximal inhibition (IC50) was put at 544 nM.
With `COC(=O)C(C)(C)OC(=O)N1CCC2(CC1)CC2CNC(=O)c1cc2ccncc2o1` (stereo not shown) [Example 205, (2-methoxy-1,1-dimethyl-2-oxo-ethyl) 2-[(furo[2,3-c]pyridine-2-carbonylamino)methyl]-6-azaspiro[2.5]octane-6-carboxylate] the figure was 108 nM; with `O=C(NCC1CC12CCN(C(=O)Nc1ccccc1)CC2)N1Cc2ccncc2C1` (stereo not shown) [Example 208, N-[[6-(phenylcarbamoyl)-6-azaspiro[2.5]octan-2-yl]methyl]-1,3-dihydropyrrolo[3,4-c]pyridine-2-carboxamide], 34.7 nM.
As to `O=C(NCc1ccccc1)N1CCC2(CC1)CC2CNC(=O)N1Cc2ccncc2C1` (stereo not shown) [Example 210, N-[[6-(benzylcarbamoyl)-6-azaspiro[2.5]octan-2-yl]methyl]-1,3-dihydropyrrolo[3,4-c]pyridine-2-carboxamide], the IC50 worked out at 58.8 nM.
With `O=C(NCC1CC12CCN(S(=O)(=O)Cc1ccccc1)CC2)N1Cc2ccncc2C1` (stereo not shown) [Example 211, N-[(6-benzylsulfonyl-6-azaspiro[2.5]octan-2-yl)methyl]-1,3-dihydropyrrolo[3,4-c]pyridine-2-carboxamide] the figure was 27.8 nM; with `Cn1cc(C(=O)N2CCC3(CC2)CC3CNC(=O)N2Cc3ccncc3C2)cn1` (stereo not shown) [Example 221, N-[[6-(1-methylpyrazole-4-carbonyl)-6-azaspiro[2.5]octan-2-yl]methyl]-1,3-dihydropyrrolo[3,4-c]pyridine-2-carboxamide], 17.8 nM.
Take `CCn1nc(C)c(C(=O)N2CCC3(CC2)CC3CNC(=O)c2cc3c(o2)C=NCC3)c1C` (stereo not shown) [Example 222, N-[[6-(1-isopropyl-3,5-dimethyl-pyrazole-4-carbonyl)-6-azaspiro[2.5]octan-2-y]methyl]furo[2,3-c]pyridine-2-carboxamide]: it took 50.4 nM to reach half-maximal inhibition (IC50). Compared with the last compound, the IC50 is about 2.8-fold higher.
In the case of `O=C(CCN1CCOCC1)N1CCC2(CC1)CC2CNC(=O)N1Cc2ccncc2C1` (stereo not shown) [Example 229, N-[[6-(3-morpholinopropanoyl)-6-azaspiro[2.5]octan-2-yl)methyl]-1,3-dihydropyrrolo[3,4-c]pyridine-2-carboxamide] it was 54.8 nM.
